Measured values as given in patent publication US20040209246A1, “Dual reporter/dye reduction methodology for evaluating antiviral and cytotoxicity of hepatitis C virus inhibitors” (Agouron Pharmaceuticals, Inc., priority 2003, published 2004).

Legend:
[1] = test system: B6b dual reporter replicon cell line (Huh-7); assay: XTT dye reduction cytotoxicity, cell line B6b; details: three days incubation
Source text: (§1) In the current invention, two end points will be used to measure CC50 values. The first is XTT dye reduction methodology and the second is the use of the second reporter gene integrated in the nucleus of cells carrying the reporter-selectable HCV replicons. In case of both methodologies, a CC50 value will be generated from the same wells from which an EC50 value was obtained. The CC50 value would be generated by calculating % cytotoxicity of the inhibitor/compound treated wells compared to the no inhibitor/compound well resulting in generation of a dose dependent curve to obtain the value that was responsible for the death of 50% of the cells.
(§2) Cell line BB7 M4 hRLuc#10 was grown in DMEM without phenol red (catalog # 1053-028) at 10% FBS with 4 mM L-glutamine, 1×Pen-step, 1×non-essential amino acids, and 200 μg/ml G418 (all from Gibco BRL/Invitrogen). Line B6b was grown in the same media with the addition of 6 μg/ml Blasticidin (ICN Biomedicals). Experiments in these replicon lines were carried out in 96-well black wall, clear-bottom plates (Costar®; Corning Incorporated). Cells were seeded as diagrammed in the figure below at a density of 2×10^4/well in 100 μl DMEM (described above) without G418 or Blasticidin. […]
(§3) Cell line BB7 M4 hRLuc #10 contained the selectable reporter replicon BB7 M4-hRLuc, which served as an anti-viral marker, but cytotoxicity had to be measured by XTT. […]

[2] = test system: BB7 M4 hRLuc#10 replicon cell line (Huh-7); assay: XTT dye reduction cytotoxicity, cell line #10; details: cell line #10, XTT dye reduction, three days incubation
Source text: as §1, §2, §3

[3] = test system: B6b dual reporter replicon cell line (Huh-7)
Source text: as §1, §2, §3

interferon alpha [IFN]
>10 IU/ml: CC50 (XTT) [1] | CC50 (XTT) [2] | CC50 (FLuc) [3]
